The record followed here is PubChem BioAssay AID1961 (Sanford-Burnham Center for Chemical Genomics, 2009).

Amino acid sequences for entries named in this document (tags omitted).
UniProt Q9Y2T6, whole entry: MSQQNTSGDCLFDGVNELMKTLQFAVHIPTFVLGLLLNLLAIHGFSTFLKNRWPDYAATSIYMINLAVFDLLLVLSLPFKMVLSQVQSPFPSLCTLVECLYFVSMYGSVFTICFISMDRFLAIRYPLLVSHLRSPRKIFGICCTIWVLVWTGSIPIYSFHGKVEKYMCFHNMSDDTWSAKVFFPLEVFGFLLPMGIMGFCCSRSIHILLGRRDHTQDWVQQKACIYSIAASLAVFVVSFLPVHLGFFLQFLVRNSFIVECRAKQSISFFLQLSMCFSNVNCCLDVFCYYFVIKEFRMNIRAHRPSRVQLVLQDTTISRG

The entries are a selection whose mix differs from that of the whole data set. Active and inactive are the calls of the source.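 Rule for the calls: active = activation above 40% with more than 50 cells counted in the well; inconclusive = wells holding fewer than 50 cells, flagged as toxic or sparse; inactive = the rest.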

The target of this assay is G-protein coupled receptor 55 (Homo sapiens) (UniProt Q9Y2T6). Description: selective activators of receptor GPR55 – imaging, U2OS cells, beta-arrestin-GFP redistribution, primary screen (AID 1961).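 For activation: U2OS osteosarcoma cells stably expressing GPR55 and beta-arrestin-GFP; plate controls were DMSO negative control for no effect and LPI positive control for full effect.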 As to conditions: at 10 µM; hits give high values.
As for `O=P(Nc1nccs1)(c1ccccc1)c1nc2ccccc2s1` (configuration not stated), the activation entry is “inactive”.
The value for `O=C(O)c1cccc(Nc2c([N+](=O)[O-])cc([N+](=O)[O-])cc2[N+](=O)[O-])c1` was inactive: -1.9%; that for `NC(=O)Nc1ccc([As](=O)(O)O)cc1` was “inactive”; that for `CN(C(=O)Cc1ccccc1)[C@@H]1CC[C@]2(CCCO2)C[C@H]1N1CCCC1` was “inactive”.
The value for `CC1=NCCc2c1[nH]c1ccccc21.O=[N+]([O-])c1cc([N+](=O)[O-])c(O)c([N+](=O)[O-])c1` was inactive: 1.4%.
For `O=[N+]([O-])c1ccc2c(c1)nnn2O`, the activation entry is “inactive”.
As to `O=C(OC1CN2CCC1CC2)c1ccc(Cl)cc1` (configuration not stated), the activation entry was “inactive”.
For `CS(=O)(=O)c1ccc(Cl)c(NC(=O)COC(=O)C(O)(c2ccccc2)c2ccccc2)c1`, the activation entry is “inactive”.
The value for `COc1ccccc1OP(C)(=O)Nc1cccc(Br)c1` (configuration not stated) was inactive: 0%.
To `O=[As](O)(O)c1cccnc1` belongs “inactive”; to `COc1cc(C(=O)NCC2(N3CCOCC3)CCCCC2)cc(Cl)c1OC(C)C`, “inactive”; to `Cc1cc(C)cc(OP(C)(=O)Nc2ccc(C)cc2C)c1` (configuration not stated), inactive: -0.1%.
As for `O=[As](O)(c1cccc(O)c1)c1cccc(O)c1`, the activation result is “inactive”.
Take `CCOC(=O)c1ccc(NP(C)(=O)Oc2cc(C)cc(C)c2)cc1` (configuration not stated): the activation was inactive: 0.7%.
To `Cc1cc(C)cc(OP(C)(=O)Nc2ccccn2)c1` (configuration not stated) belongs inactive: -0.1%; to `CP(=O)(Nc1cccc(Br)c1)Oc1ccccc1` (configuration not stated), inactive: 0.6%; to `Cc1ccc(C)c(NP(C)(=O)Oc2ccccc2)c1` (configuration not stated), inactive: 0.3%.
The value for `O=[N+]([O-])c1cc([N+](=O)[O-])c(-n2nnc3ccccc32)c([N+](=O)[O-])c1` was inactive: -0.4%; that for `O=P1(Nc2ccccn2)COc2ccccc2OC1` was “inactive”; that for `Cc1nc2ccc3ccccc3c2s1.O=[N+]([O-])c1cc([N+](=O)[O-])c(O)c([N+](=O)[O-])c1` was inactive: -0.3%.
The value for `O=[As](O)(c1ccccc1Br)c1ccccc1Br` was “inactive”; that for `Cc1nn(-c2ccccc2)c2c1P(=O)(N1CCOCC1)N(C)C(c1ccccc1)=N2` (configuration not stated) was “inactive”.
For the compound `CCOC(=O)C(CC)C1=NC(C)(C)Cc2ccccc21.O=[N+]([O-])c1cc([N+](=O)[O-])c(O)c([N+](=O)[O-])c1` (configuration not stated), the activation was inactive: -0.2%.
The value for `O=[N+]([O-])c1cc([N+](=O)[O-])c(Nc2nnnn2CCO)c([N+](=O)[O-])c1` was inactive: 0%.
The value for `O=C(/C=C/c1ccccc1)OC1CN2CCC1CC2` (configuration not stated) was “inactive”.
To `COc1ccccc1OP(C)(=O)Nc1c(C)cccc1C` (configuration not stated) belongs inactive: 0.2%; to `CN1CCCCC1COC(=O)C1(O)c2ccccc2CCc2ccccc21` (configuration not stated), inactive: -0.2%.
